# From patent publication US10130608B2, “Methods of treating or preventing multiple sclerosis” (Toray Industries, Inc., priority 2014, dated 2018)
# Molecular target: T1, thrombin (Homo sapiens, UniProt P00734)
# T1 construct: purchased Anaspec Inc
# Experiment: Thrombin activity assay (SensoLyte 520 kit, FRET)
# Type: biochemical
# Settings: thrombin 300 ng/mL, 5-FAM/QXL 520 substrate 300 nmol/L, 2 hours at room temperature; read-out: IC50 value of the thrombin activity inhibition
# Method: The action of the cyclohexane derivative (I) or the pharmaceutically acceptable salt thereof on the thrombin activity was evaluated using a SensoLyte (registered trademark) 520 thrombin activity assay kit manufactured by Anaspec Inc., which utilizes fluorescence resonance energy transfer (FRET).
# The test compound was dissolved in dimethylsulfoxide (hereinafter referred to as DMSO), and diluted with the assay buffer included in the kit to a final DMSO concentration of 0.5 to 1%. […] Thereafter, the fluorescence value was measured by excitation at 485 nm and detection at 520 nm. […]
# The thrombin activity inhibition rate (%) was calculated according to Equation 1, and regression analysis was carried out to obtain a sigmoid curve (variable slope), thereby calculating the IC50 value of the thrombin activity inhibition by the test compound: Thrombin activity inhibition rate (%)=(1−((fluorescence value in the presence of both thrombin and the test compound)−(fluorescence value in the absence of both thrombin and the test compound))/((fluorescence value in the presence of thrombin and absence of the test compound)−(fluorescence value in the absence of both thrombin and the test compound)))×100 Equation 1. […]
structure (smiles),measurement,value
"CC1CNc2c(cccc2S(=O)(=O)N[C@@H](CCCNC(=N)N)C(=O)N2CC[C@@H](C)C[C@@H]2C(=O)O)C1 (stereo partly shown) [Argatroban, reference compound]",IC50,3 nM
